From patent US12139488B2, “Pyrido[3,2-d]pyrimidine compounds uses thereof for treating a proliferative disease” (Universite de Montreal, priority 2021, dated 2024)
pIC50: −log10 of the molar value. Like-named read-outs stand apart in the source and are kept apart here.

Chains of the proteins cited; added tags and fusions are not shown.
UniProt P04049, whole entry: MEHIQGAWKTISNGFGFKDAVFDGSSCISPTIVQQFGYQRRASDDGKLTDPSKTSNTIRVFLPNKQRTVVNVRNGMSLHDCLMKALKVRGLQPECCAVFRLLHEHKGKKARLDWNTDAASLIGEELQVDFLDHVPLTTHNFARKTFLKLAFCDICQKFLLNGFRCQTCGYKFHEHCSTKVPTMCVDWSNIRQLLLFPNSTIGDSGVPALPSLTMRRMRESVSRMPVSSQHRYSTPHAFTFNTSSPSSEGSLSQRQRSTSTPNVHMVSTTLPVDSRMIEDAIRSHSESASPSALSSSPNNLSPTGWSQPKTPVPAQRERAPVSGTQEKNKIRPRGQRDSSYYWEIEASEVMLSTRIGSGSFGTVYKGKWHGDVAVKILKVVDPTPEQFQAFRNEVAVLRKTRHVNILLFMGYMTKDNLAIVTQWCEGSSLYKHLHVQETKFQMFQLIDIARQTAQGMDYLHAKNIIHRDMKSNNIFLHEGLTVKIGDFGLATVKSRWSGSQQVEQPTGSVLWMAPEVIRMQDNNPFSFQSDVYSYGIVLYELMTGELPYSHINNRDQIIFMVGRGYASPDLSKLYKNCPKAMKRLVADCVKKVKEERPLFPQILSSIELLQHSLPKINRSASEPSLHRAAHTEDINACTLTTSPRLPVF
UniProt P15056, whole entry: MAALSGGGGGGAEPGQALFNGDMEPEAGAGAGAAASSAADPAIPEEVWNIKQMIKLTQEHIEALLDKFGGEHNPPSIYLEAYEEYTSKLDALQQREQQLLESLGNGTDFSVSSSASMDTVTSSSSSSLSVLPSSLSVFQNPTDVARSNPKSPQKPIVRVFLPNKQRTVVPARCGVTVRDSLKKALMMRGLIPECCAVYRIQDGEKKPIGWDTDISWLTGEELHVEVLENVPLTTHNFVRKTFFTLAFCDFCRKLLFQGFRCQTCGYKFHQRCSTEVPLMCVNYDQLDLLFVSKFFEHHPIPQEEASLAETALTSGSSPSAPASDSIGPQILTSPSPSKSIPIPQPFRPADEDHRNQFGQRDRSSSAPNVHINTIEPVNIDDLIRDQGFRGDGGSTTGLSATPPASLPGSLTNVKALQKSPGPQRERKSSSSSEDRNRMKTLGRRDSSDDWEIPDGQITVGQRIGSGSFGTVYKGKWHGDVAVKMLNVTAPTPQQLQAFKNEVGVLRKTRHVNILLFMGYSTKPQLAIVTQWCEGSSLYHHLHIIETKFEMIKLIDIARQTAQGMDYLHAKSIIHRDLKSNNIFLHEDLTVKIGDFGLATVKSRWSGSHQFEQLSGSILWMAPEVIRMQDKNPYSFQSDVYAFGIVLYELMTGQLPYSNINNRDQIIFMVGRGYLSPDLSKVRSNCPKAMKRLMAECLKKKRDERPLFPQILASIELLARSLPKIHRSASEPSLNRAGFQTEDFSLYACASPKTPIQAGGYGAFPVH

How the values were obtained:
[1] = molecular target: CRAF (Homo sapiens, UniProt P04049); assay: CRAF kinase activity assay (ADP-Glo)
[2] = molecular target: BRAF (Homo sapiens (Human), UniProt P15056); assay: BRAF kinase activity assay (ADP-Glo)
[3] = test system: pERK in HCT-116 cells (KRAS G13D); assay: Phospho-ERK inhibition (AlphaLISA SureFire Ultra p-ERK 1/2), HCT116; conditions: for HCT116 pERK % Ymin (lowest value of the IC50 curve): Ymin above −20% = minimal or no paradoxical activation; for pIC50: read-out: HCT116 pERK IC50
Summary of the method: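 Cells plated in RPMI-1640 with 5% FBS, kept overnight at 37° C, then treated 1 h with ten-point dilutions (top usually 10 μM; 0.5% DMSO). Lysate p-ERK1/2 (Thr202/Tyr204) read by AlphaLISA SureFire Ultra. % inhibition set against DMSO after subtracting the trametinib background; IC50 from four-parameter fit.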

[4] = read-out: Kinase IC50 (nM), CRAF biochemical kinase assay, CRAF
[5] = read-out: Kinase IC50 (nM), BRAF biochemical kinase assay, BRAF
[6] = read-out: Kinase IC50 (nM) CRAF
[7] = read-out: Kinase IC50 (nM) BRAF
[8] = HCT116 cells, class symbol before the bracket

Structure (SMILES)	IC50 [1, 4] [nM]	IC50 [2, 5] [nM]	HCT116 pERK % Ymin (lowest value of the IC50 curve) ([3]; HCT116 cells) [%]	pIC50 ([3]; HCT116 cells)	also measured
CC1(O)CCCN(c2cccc3c2ncn3-c2ccc3ncnc(Nc4c(F)ccc(NS(=O)(=O)c5cccc(Cl)c5Cl)c4F)c3n2)CC1 (centres unmarked)	> 50	> 10	−4	> 6.30	–
CC(C)(C)CN1CCN(c2cccc3c2nnn3-c2ccc3ncnc(Nc4c(F)ccc(NS(=O)(=O)c5cccc(Cl)c5Cl)c4F)c3n2)CC1	10 to 50	1 to 10	−8	6.00 to 6.30	–
CC1(O)CCN(c2cccc3c2nnn3-c2ccc3ncnc(Nc4c(F)ccc(NS(=O)(=O)c5cccc(Cl)c5Cl)c4F)c3n2)CC1	10 to 50	1 to 10	6	> 6.30	–
CO[C@@H]1CCN(c2cccc3c2ncn3-c2ccc3ncnc(Nc4c(F)ccc(NS(=O)(=O)c5cccc(Cl)c5Cl)c4F)c3n2)C1	10 to 50	> 10	−10	> 6.30	–
Cc1c(Cl)cccc1S(=O)(=O)Nc1ccc(F)c(Nc2ncnc3ccc(-n4nc(C(=O)N5CCNC[C@@H]5C)c5ccccc54)nc23)c1F	–	–	–	–	IC50 ([1]; read-out: Kinase IC50 (nM) CRAF, tested form: formic acid salt): > 50 nM; IC50 ([2]; read-out: Kinase IC50 (nM) BRAF, tested form: formic acid salt): < 1 nM; HCT116 pERK Ymin % ([3]; HCT116 cells, Ymin in brackets, tested form: formic acid salt): −0.2%; pIC50 ([3]; HCT116 cells, class symbol before the bracket, tested form: formic acid salt): > 6.30
O=S(=O)(Nc1ccc(F)c(Nc2ncnc3ccc(-c4nc(CN5CCOCC5)cs4)nc23)c1F)c1cccc(Cl)c1Cl	10 to 50	1 to 10	−17	> 6.30	–
COC[C@@H]1CCCN1c1cccc2c1ncn2-c1ccc2ncnc(Nc3c(F)ccc(NS(=O)(=O)c4cccc(Cl)c4Cl)c3F)c2n1	> 50	> 10	−3	> 6.30	–
Cc1c(F)cccc1S(=O)(=O)Nc1ccc(F)c(Nc2ncnc3ccc(-n4nc(C(=O)N5CCN(C)CC5)c5ccccc54)nc23)c1F	–	–	–	–	IC50 [1, 6]: > 50 nM; IC50 [2, 7]: < 1 nM; HCT116 pERK Ymin % ([3]; HCT116 cells, Ymin in brackets): 5%; pIC50 [3, 8]: > 6.30
Cc1c(F)cccc1S(=O)(=O)Nc1ccc(F)c(Nc2ncnc3ccc(-n4nc(C(=O)N5CC6CC(C5)N6)c5ccccc54)nc23)c1F	–	–	–	–	IC50 ([1]; read-out: Kinase IC50 (nM) CRAF, tested form: formate): > 50 nM; IC50 ([2]; read-out: Kinase IC50 (nM) BRAF, tested form: formate): < 1 nM; HCT116 pERK Ymin % ([3]; HCT116 cells, Ymin in brackets, tested form: formate): −0.4%; pIC50 ([3]; HCT116 cells, class symbol before the bracket, tested form: formate): > 6.30
O=S(=O)(Nc1ccc(F)c(Nc2ncnc3ccc(-n4nnc5c(N6CCN(CCO)CC6)cccc54)nc23)c1F)c1cccc(Cl)c1Cl	< 10	< 1	−8	> 6.30	–
O=S(=O)(Nc1ccc(F)c(Nc2ncnc3ccc(-n4cnc5c(CN6CCC[C@@H]6CO)cccc54)nc23)c1F)c1ccccc1Cl	–	–	–	–	IC50 [1, 6]: > 50 nM; IC50 [2, 7]: 1 to 10 nM; HCT116 pERK Ymin % ([3]; HCT116 cells, Ymin in brackets): −7%; pIC50 [3, 8]: 5.00 to 6.00
O=S(=O)(Nc1ccc(F)c(Nc2ncnc3ccc(-n4nnc5c(N6CC7CC6CO7)cccc54)nc23)c1F)c1cccc(Cl)c1Cl (centres unmarked)	10 to 50	1 to 10	0	> 6.30	–
CC(C)C(=O)N1CCN(c2cccc3c2ncn3-c2ccc3ncnc(Nc4c(F)ccc(NS(=O)(=O)c5cccc(Cl)c5Cl)c4F)c3n2)CC1	10 to 50	1 to 10	−10	> 6.30	–
Cc1c(F)cccc1S(=O)(=O)Nc1ccc(F)c(Nc2ncnc3ccc(-n4cnc(-c5ccccn5)c4)nc23)c1F	> 50	> 10	−5	5.00 to 6.00	–
NC(=O)c1nn(-c2ccc3ncnc(Nc4c(F)ccc(NS(=O)(=O)c5ccccc5Cl)c4F)c3n2)c2ccccc12	–	–	–	–	IC50 [1, 6]: 10 to 50 nM; IC50 [2, 7]: 1 to 10 nM; HCT116 pERK Ymin % ([3]; HCT116 cells, Ymin in brackets): −1%; pIC50 [3, 8]: 5.00 to 6.00
CN1CCN(S(=O)(=O)c2cn(-c3ccc4ncnc(Nc5c(F)ccc(NS(=O)(=O)c6cccc(Cl)c6Cl)c5Cl)c4n3)c3ccccc23)CC1	–	–	–	–	IC50 ([1]; read-out: Kinase IC50 (nM) CRAF, Table 5): 10 to 50 nM; IC50 ([2]; read-out: Kinase IC50 (nM) BRAF, Table 5): 1 to 10 nM; HCT116 pERK Ymin % ([3]; lowest value of the curve, HCT116, Table 5): −3%; pIC50 ([3]; HCT116 cells, Table 5): > 6.30
CC1(N)CCN(c2cccc3c2ncn3-c2ccc3ncnc(Nc4c(F)ccc(NS(=O)(=O)c5cccc(Cl)c5Cl)c4F)c3n2)CC1	< 10	< 1	−10	5.00 to 6.00	–
